Bioassay records: PubChem BioAssay, ICCB-Longwood Screening Facility, Harvard Medical School
Many of the other results were omitted from the sample, so hits are more common in it than they were.
GIV-Gai inh: inhibitors of GIV peptide binding to Galpha-i3, primary screen, biochemical, fluorescence polarization, FITC-GIV GBA peptide, rat Galphai3; 90 min; stronger effect = lower value; scaled: aluminum fluoride 0%, vehicle 100%; percent of control (FP), % (no concentration beside the values); 210,000 tested, 0.42% active; AID 1224905, 2016;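 active = replicate mean at 85% of control or lower, very high polarization wells dropped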;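 note: wells of about 15 µL received 100 nL stock; the first replicate is given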
GIV-Gai FP conf: GIV-Galpha-i3 inhibition, FP confirmation. shares compounds with GIV-Gai inh. FITC-GIV peptide binding to Galphai3, fluorescence polarization; hits give low values. fluorescence polarization, mP at 100 µM. hit rate 38% among 580. AID 1259350;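 active = inhibition score of 15 or more, meaning 100 minus mean polarization as percent of control over three replicates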;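 also: lower mP means peptide displaced from Galphai3 so more inhibition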
GIV-Gai AS conf: confirmation of inhibitors of GIV binding to human Galpha-i3; AlphaScreen counts at 100 µM; shares compounds with GIV-Gai inh; AlphaScreen Galphai3-GIV binding, purified proteins, 90 min; hits give low values; hit rate 39% among 580; AID 1259351;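 active = inhibition score at or above a set limit, where the score is 100 minus the three-replicate mean percent of control signal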
Large screens that a line does not name were inactive (follow-up assays come after a bar, where they were run).

O=C(NCc1cc(=O)n2nc(-c3ccccc3)sc2n1)Nc1cccc(F)c1	none
Cc1ccccc1NC(=O)c1sc2nc3n(c(=O)c2c1C)N=C(c1ccccc1)CS3	none
Cc1ccccc1NC(=O)c1cc2ccccc2o1	none
Cc1ccccc1NC(=O)c1sc2nc(-c3cc4ccccc4oc3=O)[nH]c(=O)c2c1C	GIV-Gai inh 71 | GIV-Gai FP conf 38 | GIV-Gai AS conf inactive
CCCc1ccc(S(=O)(=O)N2CCc3c(c(-c4nnc(SCC)n4CC)nn3C)C2)cc1	none
Cn1c(=O)c(=O)n(C)c2c3nsnc3ccc21	none
CCOC(=O)c1cc2c(=O)n3ccccc3nc2n(C2CCCCC2)c1=N	none
N=c1c(C(N)=O)cc2c(=O)n3ccccc3nc2n1C1CCCC1	none | GIV-Gai FP conf inactive | GIV-Gai AS conf inactive
N#Cc1cc2c(=O)n3ccccc3nc2n(C2CCCC2)c1=N	none
Cc1ccc(C(=O)N2CCc3cc4cc(C)ccc4nc32)cc1	none
CCCC(=O)N1CC(=O)Nc2ccccc21	none
O=C1CN(C(=O)CSCc2c(F)cccc2Cl)c2ccccc2N1	none | GIV-Gai FP conf inactive | GIV-Gai AS conf inactive
Cc1ccc(SCC(=O)N2CC(=O)Nc3ccccc32)cc1	none
Cc1ccc(-n2c(C)ccc2-c2ccccc2)cc1	none
O=C(c1cc(-c2ccccc2)on1)N(Cc1ccccc1)C1CCS(=O)(=O)C1 (stereo not given)	none
CC(C)NC(=O)c1cc2c(n(-c3ccc(F)cc3)c1=O)CCCC2=O	none
Cc1ccc(OCCOc2ccc(Br)cc2C=C2C(=O)NC(=S)NC2=O)cc1	none
O=C1NC(=S)NC(=O)C1=Cc1cccc(O)c1Cl	GIV-Gai inh 77 | GIV-Gai FP conf inactive | GIV-Gai AS conf 4117
CC(C)(C)c1ccc(OCCOc2ccccc2C=C2C(=O)NC(=S)NC2=O)cc1	none
Cc1cc(C)n(C(=O)c2ccc(S(=O)(=O)N3CCCCCC3)cc2)n1	none
COc1cc(-c2nc3ccccn3c2N)ccc1O	GIV-Gai inh 24 | GIV-Gai FP conf inactive | GIV-Gai AS conf 18629
COc1cc(-c2nc3ccccn3c2/N=C/c2sccc2C)ccc1O	none
Nc1c(-c2ccccc2)nc2ccccn12	none
CCOC(=O)c1cc(-c2ccc(OC)c(S(=O)(=O)Nc3ccc(Cl)cc3)c2)on1	none
CC1CN(c2nc(N3CCCC3)nc3ccccc23)CC(C)N1 (stereo not given)	none
Cn1c(C(=O)Nc2ccc3c(c2)OCCO3)cc2c(=O)oc3ccccc3c21	none
CC(=O)NC1=NC(=O)/C(=C\c2cccs2)N1C	GIV-Gai inh 80 | GIV-Gai FP conf 45 | GIV-Gai AS conf inactive
NC1=NC(=O)/C(=C/c2cccs2)S1	none
CC(=O)N/C(=C\c1cccs1)C(=O)O	none
CCCCN(C)S(=O)(=O)c1cc(-c2nnc(C3CCC3)o2)co1	none
O=C(Nc1ccc2c(c1)OCO2)c1cccc(-c2nc(-c3cccc(F)c3)no2)c1	none
O=C(NCC1CCCO1)Nc1c[nH]c2c(Cl)cccc2c1=O (stereo not given)	none
O=C(Nc1ccc(Oc2ccc3ccccc3c2Br)c(Cl)c1)c1cc(Cl)cc(Br)c1O	none
CCN(CC)c1nc2ccccc2nc1C(C#N)C(=O)NCCc1ccccc1 (stereo not given)	none
N#CC(C(=O)NCCc1ccccc1)c1nc2ccccc2nc1N1CCOCC1 (stereo not given)	none | GIV-Gai FP conf inactive | GIV-Gai AS conf inactive
CCN1CCN(c2nc3ccccc3nc2C(C#N)C(=O)OCc2ccccc2)CC1 (stereo not given)	none
Cc1nc(Nc2ccc(NC(=O)Nc3ccc4c(c3)OCCO4)cc2)cc(N2CCCC2)n1	none
CCCCCn1c(=O)[nH]c2cc(C(=O)N3CCN(c4cc(C)ccc4C)CC3)ccc2c1=O	none
Cc1nc(-c2ccc(C)c(S(=O)(=O)N3CCC(C(=O)N4CCN(c5ccccc5)CC4)CC3)c2)no1	none
Cc1ccc(CSc2nc3c(-c4ccccc4)c[nH]c3c(=O)[nH]2)cc1	none
CCOC(=O)/C(C#N)=C\c1cc2ccc(OC)cc2[nH]c1=O	GIV-Gai inh 56 | GIV-Gai FP conf inactive | GIV-Gai AS conf inactive
COc1cccc(C(=O)NCCc2cc3ccc(OC)cc3[nH]c2=O)c1	none
COC(=O)/C(C#N)=C/c1ccc(OC)cc1	none
Cn1c(=O)cc(OCC(=O)NCCCN2CCCC2)c2ccccc21	none
Cc1ccc2c(c1)C=C(C(=O)NCc1ccccc1)C=CO2	none
Cn1c(=O)c2cc(C(=O)N(Cc3cccs3)C3CCCC3)sc2n(C)c1=O	none
O=C(Nc1cccc(C(=O)Nc2ccc(S(=O)(=O)O)c3cc(S(=O)(=O)O)cc(S(=O)(=O)O)c23)c1)Nc1cccc(C(=O)Nc2ccc(S(=O)(=O)O)c3cc(S(=O)(=O)O)cc(S(=O)(=O)O)c23)c1	GIV-Gai inh 0.1 | GIV-Gai FP conf 33 | GIV-Gai AS conf 3059
O=C(O)c1cccc(NC(=O)c2cccc(S(=O)(=O)Nc3cccc(C(=O)O)c3)c2)c1	none
O=C(O)c1cccc(NC(=O)c2cccc(S(=O)(=O)N3CCCCC3)c2)c1	none
CC(=O)N1CCc2cccc(N)c21	none
COc1ccc(-c2noc(-c3sccc3S(=O)(=O)N(C)c3ccccc3)n2)cc1OC	none
O=C(NCc1cccc(Cl)c1)c1ccc2c(c1)N(Cc1ccccc1)CCS2	none
O=C(NCc1cccc(Cl)c1)c1cc2ccccn2c1	GIV-Gai inh 76 | GIV-Gai FP conf inactive | GIV-Gai AS conf 9777
Cn1cc(CCC(=O)NCc2cccc(Cl)c2)c2ccccc21	none
O=C(/C=C/C=C/c1ccco1)c1ccccc1	none
O=C(/C=C/c1ccccc1)/C=C/c1ccco1	none
O=C(/C=C/c1ccco1)/C=C/c1ccco1	GIV-Gai inh 45 | GIV-Gai FP conf inactive | GIV-Gai AS conf inactive
COc1ccccc1NC(=O)Cn1cnc2sc(C(=O)N3CCN(c4ccccc4OC)CC3)c(C)c2c1=O	none
Cc1c(C)n(-c2ccccc2)c2nc(C(=O)Nc3cccc(F)c3)nc(N3CCCC3)c12	none
CN1C(C(=O)c2ccccc2)=C(NC(=O)c2ccccc2)c2ccccc2S1(=O)=O	GIV-Gai inh 67 | GIV-Gai FP conf inactive | GIV-Gai AS conf inactive
CCN1C(C(=O)c2ccccc2)=C(NC(=O)c2ccc(Cl)cc2)c2ccccc2S1(=O)=O	none
CCCCCN1C(C(=O)c2ccccc2)=C(NC(=O)c2ccc(OC)cc2)c2ccccc2S1(=O)=O	none
Cc1nn(-c2ccc(N3CCCCC3)nn2)c(C)c1CCC(=O)NCCc1c[nH]c2ccccc12	none
COc1cccc(C(=O)N2CCN(C(=O)c3ccccc3)CC2)c1	none
O=c1c(=NO)c(=O)c2ccccc12	GIV-Gai inh 55 | GIV-Gai FP conf 47 | GIV-Gai AS conf 13907
O=c1c2ccccc2c2nc3c(=O)c4ccccc4c3nc12	none
O=C1c2ccccc2C(=O)N1N1C(=O)c2ccccc2C1=O	none
CCN(CC)S(=O)(=O)c1ccc(C(=O)Nc2c3c(nn2-c2cc(C)cc(C)c2)CSC3)cc1	none
COc1ccc(NC(=O)Nc2nnc(SCC(=O)Nc3cc(OC)ccc3OC)s2)cc1	none
OC(CN1CCN(Cc2ccccc2)CC1)c1ccc2cc[nH]c2c1 (stereo not given)	none
CCN1C(=O)C(=Cc2ccc(N(C)C)cc2)C(=O)N(CC)C1=S	none
CCOC(=O)C1=C(C)N(CCOC)C(=O)/C1=C\c1ccc(N(C)C)cc1	GIV-Gai inh 64 | GIV-Gai FP conf inactive | GIV-Gai AS conf 19702
CCOC(=O)c1ccc(N(C)C)cc1	none
O=S(=O)(c1ccccc1)c1nnn2c1nc(N1CCc3ccccc31)c1sccc12	none
Nc1nc2ccc(CCC(=O)O)cc2s1	GIV-Gai inh 57 | GIV-Gai FP conf 60 | GIV-Gai AS conf 3278
